Source: US5589513A, “Pharmaceutical composition and process for the preparation thereof” (Chinoin Gyogyszer es Vegyeszeti Termekek Gyara Rt., priority 1991, dated 1996)

How the values were obtained:
[1] = tested on: DA uptake, rat brain synaptosomas, STRIATUM; experiment: In vitro DA uptake inhibition on brain synaptosomes (striatum); type: biochemical
[2] = tested on: NA uptake, rat brain synaptosomas, HYPOTHALAMUS; experiment: In vitro NA uptake inhibition on brain synaptosomes (hypothalamus); type: biochemical
[3] = tested on: MAO-B activity of the platelets; experiment: Inhibition of platelet MAO-B activity after per os and transdermal application; type: in vivo; details: pigs, 14C-PEA; for inhibition of MAO-B activity of the platelets (%), mean: n = 3
Procedure: (§1) MAO activity was measured radiometrically according to the methods of Wurtman and Axelrod [Biochem. Pharmacol. 12. 1414-19; (1963)] with a slight modification [K. Magyar in: Monoamine Oxidases and their Selective Inhibition, Ed.: K. Magyar, Pergamon Press, Akademiai Kiado, Budapest, 11-21; (1980)].

[4] = tested on: MAO-B; experiment: Inhibition of MAO activity in liver, 14C-PEA substrate; type: in vivo, domestic pig; details: pig; p. os 96 h; UG-111 48 h (patch 24 h); UG-167 72 h (patch 48 h); UG-191 96 h (patch 72 h)
Procedure: as §1

[5] = Distribution of labelled deprenyl and p-fluoro-deprenyl in brain regions and plasma after oral administration; type: in vivo; details: rats
Text: The simultaneous presence and the equal quantities of the two labels indicate the unchanged molecule (the data relate to the molar concentrations calculated on the basis of the two labels). Because of the fast change observed in the injected ^3 H/^14 C ratio in the tissues, our experiments indicate a significant metabolite formation (amphetamine, methylamphetamine, p-fluoro-methylamphetamine and p-fluoro-amphetamine) and their presence in the brain.

[6] = tested on: MAO-B; experiment: Inhibition of MAO activity in brain nucleus free homogenates, 14C-PEA substrate; type: in vivo, domestic pig; details: pig; p. os 96 h; UG-111 48 h (patch 24 h); UG-167 72 h (patch 48 h); UG-191 96 h (patch 72 h)
Procedure: as §1

`C#CCN(C)[C@@H](C)Cc1ccccc1` [(+)-DEPR.] showed a pIC50 [1] of 4.62 and a pIC50 [2] of 4.77.
`CN[C@@H](C)Cc1ccccc1` [(+)-metamphetamine] gave a pIC50 [1] of 6.22 and a pIC50 [2] of 6.46.
With `C#CCN(C)[C@H](C)Cc1ccccc1` [(-)-deprenyl, (-)N-(-1-phenyl-isopropyl)-N-methyl-propinylamine-hydrochloride] the “inhibition of MAO-B activity of the platelets (%), mean” value (shortened to “inhibition … (%), mean”) ([3]; 3 h, doses as printed per mode of application) was 95.15%, the “inhibition of MAO-B activity of the platelets (%), single animals” value (from here on “inhibition … (%), single animals”) ([3]; 3 h, per os 10 mg, UG-111 10 mg 24 h, UG-167 20 mg 48 h, UG-191 30 mg 72 h) was 97.77% and 92.52% and 0.0% and the “inhibition … (%), single animals” value ([3]; 6 h, doses as printed per mode of application) was 86.04% and 96.51% and 95.63%. For the same molecule, the “inhibition … (%), mean” value ([3]; 6 h) was 92.73 ± 3.35%, the “inhibition … (%), single animals” value ([3]; 24 h, doses as printed per mode of application) was 100.00% and the “inhibition … (%), mean” value ([3]; 24 h) was 100 ± 0.0%. For the same molecule, the “inhibition … (%), single animals” value ([3]; 48 h, doses as printed per mode of application) was 82.67% and 70.48% and 69.93%, the “inhibition … (%), mean” value ([3]; 48 h) was 74.36 ± 4.16% and the “inhibition … (%), single animals” value ([3]; 72 h, doses as printed per mode of application) was 72.32% and 65.63% and 50.17%. For the same molecule, the “inhibition … (%), mean” value ([3]; 72 h) was 52.71 ± 6.56%, the “inhibition … (%), single animals” value ([3]; 96 h, doses as printed per mode of application) was 0.0% and the “inhibition of MAO activity (%) liver 14C-PEA” value [4] was 41.04 ± 7.62%. For the same molecule, the pIC50 [1] was 4.00, the “residence time of the unchanged molecule in the brain” value [5] was “short residence time” and the “time in which the unchanged compound was absorbed” value ([5]; deprenyl 1.5 mg/kg, p-fluoro-deprenyl 10 mg/kg) was 15 min. The pIC50 [2] was 4.29 and the “inhibition of MAO activity (%) brain 14C-PEA” value [6] was 73.22 ± 8.13%.
With `CN[C@H](C)Cc1ccccc1` [(-)-metamphetamine] the pIC50 [1] was 4.38 and the pIC50 [2] was 5.46.

pIC50: −log10 of the molar value. Several values for one entry are separate records, joined by “and”; a condition that tells them apart may be missing. Equal entries are not always repeated. Structures can show the parent of a compound that is named as a salt.
